The source of these data is PMC7211195, “The influence of the coadministration of the p-glycoprotein modulator elacridar on the pharmacokinetics of lapatinib and its distribution in the brain and cerebrospinal fluid” (Investigational New Drugs, 2019).

This data set in a line: Lapatinib pharmacokinetics in rat blood plasma (BP), HPLC-MS/MS, noncompartmental analysis. The data set is classed as in vivo, rats. The settings on record: for Clapatinib in BP, single rat: listed as Lapatinib. As for the experimental part:
This study was conducted on rats, which are a promising model to predict P-gp-based drug-drug interactions at the human BBB [15]. The animals were allowed to acclimate for one week before the beginning of the experiments. Adult male Wistar-strain rats (weight 470–525 g) were used in the study. The animals were maintained under standard breeding conditions with a 12/12 h light-dark cycle (lights on at 6.00 a.m., lights off at 6.00 p.m.) at constant room temperature (23 ± 2 °C), relative humidity (55 ± 10%) and ad libitum access to food and water. The experimental protocol for this study was reviewed and approved by the Local Ethics Committee. To obtain consistent data, the study was based on the required minimum number of animals and observation time. […] Three rats were used at each time point (n = 3). In total, the research was conducted on 66 animals (n = 33 in the experimental group and n = 33 in the control group).
Elacridar was freshly dissolved in a vehicle at an initial concentration of 20 mg/mL. […] A volume of 80 μL of blood was collected from each rat by cutting off a piece of its tail. The blood samples were collected into heparinized test tubes at the following time points: […], and they were immediately centrifuged at 2880 g for 10 min at 4 °C. The anaesthetized rats (anaesthetized by intramuscular administration of 50 mg/kg ketamine and 10 mg/kg xylazine) were prepared for cisterna magna puncture. The hair over the puncture was removed and the skin was disinfected with alcohol. The animals were placed in a recumbent position with an elevated rear part of the body. The animals’ heads were slightly flexed and immobilized with the operator’s left hand. The space between the occiput rostrally and the atlas (C1) of the spinal column caudally was gently palpated with the left thumb. A 0.7 × 20 G needle with polyethylene tubing (Terumo Poland, Warsaw, Poland) was gently inserted at an approximate angle of 80–90° through the skin with the operator’s right hand into the midsagittal region. The moment that dura mater perforation was perceptible, a small amount of CSF was found in the needle tubing. To sample additional CSF, a 1 mL insulin syringe (Becton Dickinson, Warsaw, Poland) was used to collect 80–120 μL of CSF by very gentle aspiration. Only clear CSF was collected for further analysis. […] The animals’ brains were immediately dissected, washed in 0.9% NaCl and divided along the longitudinal axis. One of the brain hemispheres was again rinsed three times with 5 mL of 0.9% NaCl, weighed and homogenized with 0.9% NaCl (4 mL per 1 g of BT) in an Ultra-Turrax homogenizer (Witko, Łódź, Poland). The homogenate was then centrifuged at 4500 g for 10 min. All samples of the rat BP, CSF, and BT homogenate supernatant were stored at −80 °C until analysis.
The chromatographic analysis was conducted using a 1260 Infinity system (Agilent Technologies, Santa Clara, USA) equipped with a Kinetex® C18 column (50 × 4.6 mm, 2.6 μm, Phenomenex, Torrance, USA), which was maintained at 35 °C.

Setting [1] is: blood plasma, lapatinib 100 mg/kg oral + 5 mg/kg elacridar (IE+L).

Values joined by “and” are separate entries in the source; they are usually repeats but may differ in a detail not shown here. Identical values can stand only once.

Consider `CS(=O)(=O)CCNCc1ccc(-c2ccc3ncnc(Nc4ccc(OCc5cccc(F)c5)c(Cl)c4)c3c2)o1` [lapatinib, N-{3-Chloro-4-[(3-fluorobenzyl)oxy]phenyl}-6-[5-({[2-(methylsulfonyl)ethyl]amino}methyl)-2-furyl]-4-quinazolinamine], for which the AUMC0-t under setting [1] is recorded as 480,290.03 ± 21,589.07 ng × h^2/mL. Besides, the “AUMC0-∞” value under setting [1] is given as 3,917,566.05 ± 1,363,043.99 ng × h^2/mL. In addition, the t0.5 (blood plasma, lapatinib 100 mg/kg oral alone (IIL)) was determined as 5.58 ± 1.28 h. Besides, the “Clapatinib in BP, single rat” value reads like this: (lapatinib 100 mg/kg + elacridar, 0.25 h) 860 ng/mL; (lapatinib 100 mg/kg + elacridar, 0.5 h) 1355 ng/mL; (lapatinib 100 mg/kg + elacridar, 1 h) 1900 ng/mL; (lapatinib 100 mg/kg + elacridar, 2 h) 4045 ng/mL; (lapatinib 100 mg/kg + elacridar, 3 h) 2880 ng/mL; (lapatinib 100 mg/kg + elacridar, 4 h) 1033 ng/mL. The “Clapatinib in BP, single rat” value reads like this: (lapatinib 100 mg/kg + elacridar, 6 h) 1310 ng/mL; (lapatinib 100 mg/kg + elacridar, 8 h) 2790 ng/mL; (lapatinib 100 mg/kg + elacridar, 12 h) 2315 ng/mL; (lapatinib 100 mg/kg + elacridar, 24 h) 1170 ng/mL; (lapatinib p.o. 100 mg/kg alone, 0.25 h, 100 mg/kg) 770 ng/mL; (lapatinib p.o. 100 mg/kg alone, 0.5 h, 100 mg/kg) 1445 ng/mL. Moreover, the “Clapatinib in BP, single rat” value (lapatinib p.o. 100 mg/kg alone, 1 h, 100 mg/kg) is 2265 ng/mL; the “Clapatinib in BP, single rat” value (lapatinib p.o. 100 mg/kg alone, 2 h, 100 mg/kg) stood at 2465 ng/mL; the “Clapatinib in BP, single rat” value (lapatinib p.o. 100 mg/kg alone, 3 h, 100 mg/kg) was 1530 ng/mL and 3225 ng/mL; the “Clapatinib in BP, single rat” value (lapatinib p.o. 100 mg/kg alone, 4 h, 100 mg/kg) stood at 2685 ng/mL; the “Clapatinib in BP, single rat” value (lapatinib p.o. 100 mg/kg alone, 6 h, 100 mg/kg) came to 2325 ng/mL; the “Clapatinib in BP, single rat” value (lapatinib p.o. 100 mg/kg alone, 8 h, 100 mg/kg) turned out to be 1750 ng/mL. Moreover, the “Clapatinib in BP, single rat” value (lapatinib p.o. 100 mg/kg alone, 12 h, 100 mg/kg) was 955 ng/mL and 2055 ng/mL.
